According to BindingDB's records for US9175000:

Tests used:
Details in all cases: pH 7.4
[1] = target: T1, Kappa-type opioid receptor (Homo sapiens, UniProt P41145); assay: GTPgammaS Functional Assay
[2] = target: T1, Kappa-type opioid receptor; assay: Radioligand Dose-Displacement Binding Assays (kappa)
Mu-type opioid receptor [3] = target: T2, Mu-type opioid receptor (Homo sapiens, UniProt P35372); assay: Radioligand Dose-Displacement Binding Assays (mu)
Mu-type opioid receptor [4] = target: T2, Mu-type opioid receptor; assay: GTPgammaS Functional Assay (mu)

## COc1ccc2c3c1O[C@H]1[C@@]4(OC)CC[C@@]5(C[C@@H]4C(NC(C)C(N)=O)c4ccccc4)[C@@H](C2)N(CC2CC2)CC[C@]315 (some centres not stated)
[1]
  EC50: 0.0683 µM

## COc1ccc2c3c1O[C@H]1[C@@]4(OC)CC[C@@]5(C[C@@H]4C(NCC(=O)O)c4ccccc4)[C@@H](C2)N(CC2CC2)CC[C@]315 (some centres not stated)
[2]
  Ki: 0.0522 µM

## COc1ccc2c3c1O[C@H]1[C@@]4(OC)CC[C@@]5(C[C@@H]4C(N[C@@H](C(N)=O)c4ccccc4)c4ccccc4)[C@@H](C2)N(CC2CC2)CC[C@]315 (some centres not stated)
Mu-type opioid receptor [3]
  Ki: 0.123 µM

## COc1ccc2c3c1O[C@H]1[C@@]4(OC)CC[C@@]5(C[C@@H]4[C@](O)(CC(O)CO)c4ccccc4)[C@@H](C2)N(CC2CC2)CC[C@]315 (some centres not stated)
Mu-type opioid receptor [4]
  EC50: 0.196 µM
Mu-type opioid receptor [3]
  Ki: 0.0499 µM
[2]
  Ki: 0.0129 µM

## COc1ccc2c3c1O[C@H]1[C@@]4(OC)CC[C@@]5(C[C@@H]4C(NC(C(=O)O)c4ccccc4)c4ccccc4)[C@@H](C2)N(CC2CC2)CC[C@]315 (some centres not stated)
Mu-type opioid receptor [3]
  Ki: 0.278 µM
